Data: article PMC5322802 (Biochemistry, 2016)

Biological target: T1, FABP1 (Mus musculus, UniProt P12710)
T1 sequence (P12710 1-127): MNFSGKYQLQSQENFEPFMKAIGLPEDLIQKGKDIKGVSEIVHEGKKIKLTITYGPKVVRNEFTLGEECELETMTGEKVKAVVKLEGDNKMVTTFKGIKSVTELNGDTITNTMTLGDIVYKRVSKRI
Experiment: cis-parinaroyl-CoA displacement from FABP1

CCCCC/C=C\C/C=C\C/C=C\C/C=C\CCCC(=O)NCCO [AEA, n-6 arachidonoylethanolamide]
fold stronger binding by FABP1 as compared to SCP2: ≥ 3 fold
fold stronger binding by FABP1 as compared to FABP3, FABP5, and FABP7 (different displacement assays): 8–10 fold
